{
  "sequences": {"note": "Sequences of proteins named here, by UniProt entry; tags and fusion partners are left off. Residues count along the entry.", "UniProt P29597, 897-1176 limits assumed": "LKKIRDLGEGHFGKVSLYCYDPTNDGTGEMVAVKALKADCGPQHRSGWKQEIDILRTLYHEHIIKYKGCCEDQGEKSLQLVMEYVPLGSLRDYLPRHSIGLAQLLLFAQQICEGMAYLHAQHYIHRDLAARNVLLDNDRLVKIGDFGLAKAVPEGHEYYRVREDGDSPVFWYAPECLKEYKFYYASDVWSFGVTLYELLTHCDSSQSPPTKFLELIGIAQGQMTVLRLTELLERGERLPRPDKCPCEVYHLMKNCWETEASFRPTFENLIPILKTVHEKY", "UniProt P23458, 875-1153 limits assumed": "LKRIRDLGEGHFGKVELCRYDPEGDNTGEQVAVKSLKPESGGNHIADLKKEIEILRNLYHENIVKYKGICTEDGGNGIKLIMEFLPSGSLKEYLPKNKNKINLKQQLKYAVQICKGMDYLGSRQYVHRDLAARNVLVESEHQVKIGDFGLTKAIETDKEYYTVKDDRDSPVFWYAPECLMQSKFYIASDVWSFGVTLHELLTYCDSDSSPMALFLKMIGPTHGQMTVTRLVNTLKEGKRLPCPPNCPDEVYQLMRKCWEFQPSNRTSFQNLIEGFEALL", "UniProt O60674, 849-1124 limits assumed": "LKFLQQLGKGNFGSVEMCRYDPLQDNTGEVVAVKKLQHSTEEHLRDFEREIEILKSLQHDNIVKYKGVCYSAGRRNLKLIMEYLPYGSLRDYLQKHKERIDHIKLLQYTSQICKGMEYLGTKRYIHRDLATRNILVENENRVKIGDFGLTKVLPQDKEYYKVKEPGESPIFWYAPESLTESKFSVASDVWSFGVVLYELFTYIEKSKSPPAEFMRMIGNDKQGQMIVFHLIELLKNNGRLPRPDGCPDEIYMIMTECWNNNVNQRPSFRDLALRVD", "UniProt P52333, 822-1111 limits assumed": "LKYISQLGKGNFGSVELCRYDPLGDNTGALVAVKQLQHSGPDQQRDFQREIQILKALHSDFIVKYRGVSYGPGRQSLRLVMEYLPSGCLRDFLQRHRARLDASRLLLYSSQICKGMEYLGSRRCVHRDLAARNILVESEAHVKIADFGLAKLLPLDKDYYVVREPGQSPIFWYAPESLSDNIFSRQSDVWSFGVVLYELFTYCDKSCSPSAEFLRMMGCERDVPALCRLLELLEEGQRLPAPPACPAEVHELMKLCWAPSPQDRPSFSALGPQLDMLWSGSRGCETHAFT"},
  "source": "patent US20240360157A1",
  "about": "“TYK2 INHIBITORS” (BIOGEN MA INC., priority 2021, published 2024)",
  "type_in_all_cases": "biochemical",
  "key": {"[1]": {"target": "human TYK2 catalytic kinase (JH1) domain (Homo sapiens (Human), UniProt P29597)", "assay": "ADP-Glo Kinase Assay, recombinant TYK2 catalytic kinase (JH1) domain", "conditions": "read-out: TYK2 biochem IC50 (nM) Mean, recombinant JH1 domain 2 nM, 10 μM ATP, JAK3-974 peptide", "protocol": "(§1) Compounds of the disclosure were assessed for their ability to inhibit TYK2, JAK1, JAK2, and JAK3 activity. The inhibitory properties of the compounds of the disclosure described herein can be evidenced by testing in any one of the following protocols.\n(§2) The kinase activity of recombinantly generated catalytic kinase (also known as JH1) domain of human JAK1, JAK2, JAK3 and TYK2 were evaluated in a plate-based assay using the ADP-Glo™ Kinase Assay platform. Specifically, 4 nM of recombinant JAK1 kinase domain is used to phosphorylate 50 μM of a JAK3-342 (sequence ALVDGYFRLTT) peptide in the presence of 35 μM ATP. Catalytic activities of recombinant JAK2, JAK3 and TYK2 kinase domain (0.2, 0.3 and 2 nM, respectively) are evaluated by the phosphorylation status of the JAK3-974 (50 μM; sequence LPLDKDYYVVR) peptide with the addition of ATP (15, 4 and 10 μM, respectively). The reactions proceed for 100 minutes and the catalytic activity is quantified by first depleting the unused ATP, converting the hydrolyzed ADP into ATP to generate luminescence in a luciferase reaction; which is the basis of the ADP-Glo platform. Compounds are tested at either 10 μM or 1 μM top concentration, 11 points of 3-fold dilution. The data is normalized and the percent activity versus log concentration of compound is fitted with a 4-parameter logistic model to generate a curve and an IC50 value."}, "[2]": {"target": "human JAK1 catalytic kinase (JH1) domain (Homo sapiens (Human), UniProt P23458)", "assay": "ADP-Glo Kinase Assay, recombinant JAK1 catalytic kinase (JH1) domain", "conditions": "read-out: JAK1 biochem IC50 (nM) Mean, recombinant JH1 domain 4 nM, 35 μM ATP, JAK3-342 peptide", "protocol": "as §1, §2"}, "[3]": {"target": "human JAK2 catalytic kinase (JH1) domain (Homo sapiens (Human), UniProt O60674)", "assay": "ADP-Glo Kinase Assay, recombinant JAK2 catalytic kinase (JH1) domain", "conditions": "read-out: JAK2 biochem IC50 (nM) Mean, recombinant JH1 domain 0.2 nM, 15 μM ATP, JAK3-974 peptide", "protocol": "as §1, §2"}, "[4]": {"target": "human JAK3 catalytic kinase (JH1) domain (Homo sapiens (Human), UniProt P52333)", "assay": "ADP-Glo Kinase Assay, recombinant JAK3 catalytic kinase (JH1) domain", "conditions": "read-out: JAK3 biochem IC50 (nM) Mean, recombinant JH1 domain 0.3 nM, 4 μM ATP, JAK3-974 peptide", "protocol": "as §1, §2"}},
  "data": [
    {"smiles": "Cn1ncc(-c2cc3c(N4CC5CCC(C4)N5C(=O)[C@@H]4CC4(F)F)ccnc3[nH]2)c1F", "values": [
      {"measurement": "IC50", "setting": "[1]", "value": 0.4, "unit": "nM"},
      {"measurement": "IC50", "setting": "[2]", "value": 32, "unit": "nM"},
      {"measurement": "IC50", "setting": "[3]", "value": 6, "unit": "nM"},
      {"measurement": "IC50", "setting": "[4]", "value": 120, "unit": "nM"}
    ]}
  ]
}
